Active and inactive are the calls of the source.
How the values were obtained:
[1] = target: T1, 3-ketoacyl-CoA synthase 18 (Arabidopsis thaliana) (UniProt Q38860); test: Inhibition of Arbidopsis thaliana C-terminal His-tagged FAE1 expressed in Saccharomyces cerevisiae INVSc1 at 100 uM after 18 to 20 hr by GC/MS analysis
T1 sequence (whole entry): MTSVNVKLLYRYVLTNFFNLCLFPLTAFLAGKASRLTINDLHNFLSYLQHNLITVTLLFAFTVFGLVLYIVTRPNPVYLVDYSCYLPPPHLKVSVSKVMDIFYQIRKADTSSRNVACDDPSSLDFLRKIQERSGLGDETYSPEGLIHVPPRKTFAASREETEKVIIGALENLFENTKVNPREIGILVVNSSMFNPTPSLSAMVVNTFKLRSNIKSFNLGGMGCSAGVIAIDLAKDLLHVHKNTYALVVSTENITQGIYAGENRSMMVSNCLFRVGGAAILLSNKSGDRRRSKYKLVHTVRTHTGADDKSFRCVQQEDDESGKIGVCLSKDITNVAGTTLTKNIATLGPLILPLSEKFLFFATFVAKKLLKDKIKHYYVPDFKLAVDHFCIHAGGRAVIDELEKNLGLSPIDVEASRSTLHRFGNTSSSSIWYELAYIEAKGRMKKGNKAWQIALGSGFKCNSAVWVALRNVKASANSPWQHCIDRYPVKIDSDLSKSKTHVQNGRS
Procedure, shortened: (§1)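 pYES2 galactose-inducible constructs in INVSc1, grown at 28°C in uracil-dropout minimal medium with 2% glucose. Log-phase cells were induced in 1% raffinose/2% galactose with herbicide at final 100 μM, in 50-ml culture for 18–20 h, then freeze-dried. FAMEs were made in 1 M methanolic HCl/5% dimethoxypropane at 80°C for 1 h under N2 and run on GC/MS. VLCFA profile was compared with herbicide-free elongase-expressing cells.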

[2] = test system: Arabidopsis thaliana; test: Herbicidal activity against Arabidopsis thaliana assessed as apperance of fiddle head phenotype; format: functional, organism-based
[3] = target: T2, 3-ketoacyl-CoA synthase 20 (Arabidopsis thaliana) (UniProt Q9FG87); test: Inhibition of Arbidopsis thaliana C-terminal His-tagged At5g43760 expressed in Saccharomyces cerevisiae INVSc1 at 100 uM after 18 to 20 hr by GC/MS analysis; procedure, shortened: as §1
T2 sequence (whole entry): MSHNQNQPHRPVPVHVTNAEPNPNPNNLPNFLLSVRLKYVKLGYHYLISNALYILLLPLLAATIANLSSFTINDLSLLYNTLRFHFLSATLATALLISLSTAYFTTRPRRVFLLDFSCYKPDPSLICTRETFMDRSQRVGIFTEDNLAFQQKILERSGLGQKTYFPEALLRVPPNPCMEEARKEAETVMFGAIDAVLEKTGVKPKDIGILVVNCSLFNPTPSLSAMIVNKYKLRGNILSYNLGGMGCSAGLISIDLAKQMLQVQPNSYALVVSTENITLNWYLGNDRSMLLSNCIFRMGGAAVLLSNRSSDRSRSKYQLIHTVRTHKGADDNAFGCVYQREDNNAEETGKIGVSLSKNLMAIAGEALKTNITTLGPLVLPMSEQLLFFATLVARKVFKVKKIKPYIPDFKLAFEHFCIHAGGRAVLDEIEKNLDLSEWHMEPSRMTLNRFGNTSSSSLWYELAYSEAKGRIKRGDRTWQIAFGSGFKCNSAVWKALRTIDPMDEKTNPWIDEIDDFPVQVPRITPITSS

[4] = target: T3, 3-ketoacyl-CoA synthase 1 (Arabidopsis thaliana) (UniProt Q9MAM3); test: Inhibition of Arbidopsis thaliana C-terminal His-tagged KCS1 expressed in Saccharomyces cerevisiae INVSc1 at 100 uM after 18 to 20 hr by GC/MS analysis; procedure, shortened: as §1
T3 sequence (whole entry): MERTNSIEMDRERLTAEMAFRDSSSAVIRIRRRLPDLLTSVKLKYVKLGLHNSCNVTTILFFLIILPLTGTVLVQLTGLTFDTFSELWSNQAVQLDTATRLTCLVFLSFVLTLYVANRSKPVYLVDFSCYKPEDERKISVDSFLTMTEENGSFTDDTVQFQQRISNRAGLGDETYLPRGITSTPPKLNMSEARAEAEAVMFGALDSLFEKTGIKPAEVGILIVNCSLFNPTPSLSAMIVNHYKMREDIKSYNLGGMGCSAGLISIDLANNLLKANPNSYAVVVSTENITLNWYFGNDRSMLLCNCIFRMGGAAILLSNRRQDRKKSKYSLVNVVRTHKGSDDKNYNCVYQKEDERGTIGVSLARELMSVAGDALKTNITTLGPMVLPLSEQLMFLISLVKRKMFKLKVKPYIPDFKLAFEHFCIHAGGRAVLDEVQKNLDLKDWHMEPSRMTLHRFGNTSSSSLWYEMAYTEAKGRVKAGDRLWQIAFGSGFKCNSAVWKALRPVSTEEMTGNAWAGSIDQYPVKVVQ

[5] = target: T4, 3-ketoacyl-CoA synthase 2 (Arabidopsis thaliana) (UniProt Q5XEP9); test: Inhibition of Arbidopsis thaliana C-terminal His-tagged At1g04220 expressed in Saccharomyces cerevisiae INVSc1 at 100 uM after 18 to 20 hr by GC/MS analysis; procedure, shortened: as §1
T4 sequence (whole entry): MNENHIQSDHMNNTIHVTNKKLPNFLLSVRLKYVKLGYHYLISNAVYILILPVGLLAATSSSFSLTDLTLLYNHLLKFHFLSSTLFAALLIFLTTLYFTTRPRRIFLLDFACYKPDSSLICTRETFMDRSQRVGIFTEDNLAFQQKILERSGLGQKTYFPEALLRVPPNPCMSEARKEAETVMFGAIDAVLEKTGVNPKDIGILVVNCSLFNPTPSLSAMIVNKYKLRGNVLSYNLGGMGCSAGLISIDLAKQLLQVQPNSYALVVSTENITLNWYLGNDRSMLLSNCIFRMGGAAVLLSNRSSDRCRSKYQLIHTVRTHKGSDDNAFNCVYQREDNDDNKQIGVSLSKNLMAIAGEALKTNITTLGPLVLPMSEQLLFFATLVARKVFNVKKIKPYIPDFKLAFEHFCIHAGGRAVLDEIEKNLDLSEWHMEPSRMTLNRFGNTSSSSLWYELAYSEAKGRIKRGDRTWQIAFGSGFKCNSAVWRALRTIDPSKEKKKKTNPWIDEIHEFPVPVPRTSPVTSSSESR

[6] = target: T5, 3-ketoacyl-CoA synthase 5 (Arabidopsis thaliana) (UniProt Q9C6L5); test: Inhibition of Arbidopsis thaliana C-terminal His-tagged CER60 expressed in Saccharomyces cerevisiae INVSc1 at 100 uM after 18 to 20 hr by GC/MS analysis; procedure, shortened: as §1
T5 sequence (whole entry): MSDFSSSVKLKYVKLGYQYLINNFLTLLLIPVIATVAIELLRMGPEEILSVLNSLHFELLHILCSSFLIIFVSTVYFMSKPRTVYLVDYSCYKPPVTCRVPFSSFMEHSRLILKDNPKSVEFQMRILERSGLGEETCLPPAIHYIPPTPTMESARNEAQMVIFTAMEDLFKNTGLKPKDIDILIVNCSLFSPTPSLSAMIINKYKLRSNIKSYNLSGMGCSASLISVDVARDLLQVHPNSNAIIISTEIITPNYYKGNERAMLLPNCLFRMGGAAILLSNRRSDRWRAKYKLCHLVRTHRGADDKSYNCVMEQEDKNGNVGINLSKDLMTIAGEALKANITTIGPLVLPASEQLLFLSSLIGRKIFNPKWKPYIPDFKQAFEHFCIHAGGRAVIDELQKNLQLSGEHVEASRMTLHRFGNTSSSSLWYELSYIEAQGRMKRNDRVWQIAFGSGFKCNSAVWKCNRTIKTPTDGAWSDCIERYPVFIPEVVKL

[7] = target: T6, 3-ketoacyl-CoA synthase 17 (Arabidopsis thaliana) (UniProt O65677); test: Inhibition of Arbidopsis thaliana C-terminal His-tagged KCS2 expressed in Saccharomyces cerevisiae INVSc1 at 100 uM after 18 to 20 hr by GC/MS analysis; procedure, shortened: as §1
T6 sequence (whole entry): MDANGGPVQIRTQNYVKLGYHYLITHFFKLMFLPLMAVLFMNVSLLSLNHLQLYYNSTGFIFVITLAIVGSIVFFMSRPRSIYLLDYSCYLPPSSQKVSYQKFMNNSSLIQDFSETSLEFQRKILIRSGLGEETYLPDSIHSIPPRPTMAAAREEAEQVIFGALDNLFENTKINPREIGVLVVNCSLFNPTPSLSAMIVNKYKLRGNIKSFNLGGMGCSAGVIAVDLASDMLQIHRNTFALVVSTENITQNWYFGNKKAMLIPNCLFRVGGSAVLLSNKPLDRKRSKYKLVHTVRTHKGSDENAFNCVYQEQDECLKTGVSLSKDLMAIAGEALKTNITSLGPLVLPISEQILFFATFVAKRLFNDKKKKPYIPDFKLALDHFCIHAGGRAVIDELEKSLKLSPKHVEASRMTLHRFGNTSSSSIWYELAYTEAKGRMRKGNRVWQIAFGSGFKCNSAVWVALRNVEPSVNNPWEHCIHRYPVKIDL

CC(C)OP(=S)(OC(C)C)SCCNS(=O)(=O)c1ccccc1
inactive: inhibition [1] | Activity [2] | inhibition [3] | inhibition [4] | inhibition [5] | inhibition [6] | inhibition [7]
